# The entries are a selection whose mix differs from that of the whole data set. Some salts and complexes are drawn in separate pieces, as the source files them; their charges need not balance. Activity calls are given as the source filed them.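 How the source made its calls: active means most replicate scores above 10, or exactly half above 10 with mean activity above 10; inconclusive means mean activity below 10 while half the replicates exceed 10; inactive means most replicate scores below 10.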
# Assay: caspase activation in A1-primed MEFs – cell-based, CaspaseGlo luminescence, A1 inhibitor project, primary screen (AID 2241);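 further: effector caspase 3 and 7 activity cleaving a DEVD luciferin substrate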
# Settings: MEF A1-2A-BIM cells, caspase-Glo luminescence, 3 h; hits give high values; percent of clofoctol signal, DMSO as zero; concentration not given here
row,SMILES,caspase activation
1,C/C1=C2N=C(/C=C3N=C(/C(C)=C4\[N-][C@@](C)([C@@H]5N=C1[C@](C)(CCC(=O)NCC(C)OP(=O)(O)O[C@@H]1[C@H](O)[C@H](n6cnc7cc(C)c(C)cc76)O[C@H]1CO)[C@H]5CC(N)=O)[C@@](C)(CC(N)=O)[C@@H]4CCC(N)=O)[C@@](C)(CC(N)=O)[C@@H]\3CCC(N)=O)C(C)(C)[C@@H]/2CCC(N)=O.[C-]#N.[Co+3] (some centres undefined),inactive: -0.605%
2,Cc1cccc(OCC(=O)OC2CN3CCC2CC3)c1 (centres undefined),inactive: -0.283%
3,O=C(OC1CN2CCC1CC2)c1ccc(Cl)cc1 (centres undefined),inactive: 0.541%
4,Cc1ccc(C(=O)OC2CN3CCC2CC3)cc1 (centres undefined),inactive: 0.305%
5,Cc1cc(C)cc(OP(C)(=O)Nc2ccc(OC(C)C)cc2)c1 (centres undefined),inactive: 0.186%
6,O=P1(Nc2ccccn2)COc2ccccc2OC1,inactive: 0.566%
7,COc1cc2c(cc1NP(C)(=O)Oc1ccccc1)oc1ccccc12 (centres undefined),inactive: 0.441%
8,CN(C(=O)Cc1ccc(Cl)c(Cl)c1)[C@H]1CCCC[C@@H]1N1CCCC1,inactive: 0.309%
9,CP(=O)(Nc1ccc(Cl)cc1)Oc1ccc(F)cc1 (centres undefined),inactive: 0.0447%

# Reference: PubChem BioAssay AID2241 (Broad Institute, 2010)
